Experiments:
Experiment in all cases: BLI; biotinylated LIR peptide immobilised on streptavidin biosensors (Octet Red 96), ATG8 protein in solution; 25 mM Tris pH 7.5, 150 mM NaCl, 0.5 mM TCEP, 0.1% Tween-20, 1 mg/ml BSA, 25 °C; Kd from response against concentration, Y=Rmax*X/(Kd+X)
PCM1 K1957I LIR peptide = biological target: PCM1 K1957I LIR peptide
FIP200 T704I LIR peptide = biological target: FIP200 T704I LIR peptide
PCM1 WT LIR peptide = biological target: PCM1 WT LIR peptide

Row | Substance | Kd (PCM1 K1957I LIR peptide) | Kd (FIP200 T704I LIR peptide) | Kd (PCM1 WT LIR peptide)
1 | LC3B (from UniProt Q9GZQ8 1-120) (natural protein) | 10.3 µM | 64.5 µM | –
2 | LC3B Q26K (from UniProt Q9GZQ8 1-120) (natural protein) | – | – | 359 µM

Reference: PMC6499816, “Molecular determinants regulating selective binding of autophagy adapters and receptors to ATG8 proteins” (Nature Communications, 2019)
